Antibody variant affinities, Ab-95 light chain, assay 2

Target: peptide PDVDLGDISGINAS, taken from heptad repeat 2 (HR2) of SARS-CoV-2 spike.

Each scFv is VH, a (GGGGS)3 linker, VL, as in the parent Ab-95, and differs from it in the CDRs of the light chain only.
VH: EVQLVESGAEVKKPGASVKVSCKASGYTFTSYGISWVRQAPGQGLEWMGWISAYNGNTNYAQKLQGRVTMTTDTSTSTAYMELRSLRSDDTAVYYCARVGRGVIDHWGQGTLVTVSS
VL: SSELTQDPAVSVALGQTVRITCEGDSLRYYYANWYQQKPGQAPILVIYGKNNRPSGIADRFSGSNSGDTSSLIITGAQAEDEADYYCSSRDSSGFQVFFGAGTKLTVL

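The starting antibody came from a phage panning campaign against this peptide. In library AAYL52, one, two or three CDR residues were substituted; doubles and triples were drawn at random. AlphaSeq pools MATa yeast showing the antibodies with MATalpha yeast showing the peptide. Mating (16 h, 30 °C) was followed by selection of diploids and sequencing of their barcodes. The ratio of observed to expected reads was calibrated, replicate by replicate, on BCL2-family standards whose Kd was known from biolayer interferometry. Mating was done three times.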

Variants are written as CDR1, CDR2 and CDR3 of the light chain (limits as in the source). Parent: EGDSLRYYYAN, GKNNRPS, SSRDSSGFQVF.
Numbers give log10(Kd / nM), so 0 is 1 nM and 3 is 1 µM. Smaller is tighter.
"n.d." means that the variant was in the library but no mating with the target was seen in that replicate; the authors take this as a sign of poor binding, and no number exists.

CDR-L1	CDR-L2	CDR-L3	replicates, log10 nM	control signals
HGLSLRYYSAN	GKNNRPS	SSRDSSGFQVF	2.22 1.61 1.73	2/9 (4.49)
EGDSLRYYYAN	GKRNRPS	SHRDSSGFGVF	n.d. n.d. n.d.	0/9
EGDSLRYYYRN	GANNRPS	SSRDPSGFQVF	3.18 4.10 n.d.	4/9 (4.08)
VGDSRRYYYAN	GKNNRPS	SSRDSSGFQVF	3.38 n.d. n.d.	1/9 (4.70)
EGESLRYYKAN	GKINRPS	SSRDSSGFQVF	2.91 2.39 2.32	4/9 (4.29)
EGESLRYYYAN	GKNKRPS	SSRDSSGFNVF	2.85 2.81 2.50	3/9 (4.51)
EGDSPRYYYAN	GKNNRPS	SKRDSSGFQVG	n.d. n.d. 3.39	0/9
EGDSYRYYYAN	GKNNRPT	SSRDSSGFQVW	3.40 n.d. 4.22	3/9 (4.04)
EGDSIRYCYHN	GKNNRPS	SSRDSSGFQVF	3.18 3.30 2.27	7/9 (3.93)
HGDSLRHYYAN	GKNNRPS	SSRDSGGFQVF	2.09 2.19 1.39	1/9 (4.56)
EGDSLRYYYAN	GKNNRWR	SSNDSSGFQVF	3.77 3.26 n.d.	3/9 (3.58)
EGDSLCYYYAN	GKNNRPS	SSRDCSGFQVF	n.d. 3.80 4.22	0/9
EGDWLRYYYAN	GKNNRPS	SSRDSSAFQSF	n.d. n.d. n.d.	1/9 (3.01)
EGDSLRYYYAD	GKNNRPS	SSRDNSGFQVF	3.14 n.d. n.d.	3/9 (3.88)
QGDSLRDYYAN	GKNNRPS	SSRDSSGFQVF	1.50 1.40 1.13	5/9 (3.50)
EGDSLQVYYAN	GKNNRPS	SSRDSIGFQVF	3.78 3.97 4.23	1/9 (3.22)
EGDSLRYYRAM	GMNNRPS	SSRDSSGFQVF	3.41 3.54 3.11	5/9 (3.77)
EYDSLRYYYAN	GKNNRPC	SSRDSSGFQVF	3.07 3.78 4.46	3/9 (3.65)
EGDSLRYYLAN	GKNNRPS	SERDSSGFQVA	n.d. 3.96 n.d.	2/9 (3.82)
EGDSLRYYYAN	GKNNRPS	PSFDSSGHQVF	2.58 3.23 2.65	4/9 (4.11)
EGDSLRYYYAV	GKNNRPN	SSRDSEGFQVF	3.97 n.d. n.d.	3/9 (4.46)
EGDSLRYYYAN	GKNNRPS	SVRDSSGTWVF	3.27 n.d. 3.60	2/9 (3.85)
EGKSLRYYCAN	GKNNRPS	SSRDSSGFQVF	2.38 2.24 2.25	6/9 (4.36)
NGDSLRYYYAN	GKNNRPS	SSRDSSGFQVF	1.84 1.80 1.40	6/9 (4.00)
EGDSLGYYYAN	GKNNRPS	ASRTSSGFQVF	2.84 3.57 4.30	4/9 (3.85)
EGDSLRYYYAN	GKDNHPS	SVRDSSGFQVF	3.05 3.07 3.13	2/9 (3.63)
EGDSLRYYYTN	GKNIRPS	SLRDSSGFQVF	2.90 2.69 2.70	5/9 (3.46)
EGDSLRYYYSN	GKNNRGS	LSRDSSGFQVF	3.14 4.78 n.d.	3/9 (3.82)
EGDFLRYYYAN	RKNNRPS	SSRTSSGFQVF	4.84 4.64 3.35	3/9 (3.67)
EGDSLRDYYAN	GKENHPS	SSRDSSGFQVF	2.78 4.37 3.74	1/9 (4.34)
EGDSLRYEYAN	QKNNRPS	VSRDSSGFQVF	2.76 2.56 2.42	1/9 (2.66)
EGDSLRYYIAN	GKNNRPS	SSRDSKGFQVA	n.d. n.d. n.d.	0/9
EGDSLRYYYAN	GKNNRAS	SSRDSSYFWVF	2.71 2.95 2.63	3/9 (4.08)
EGDSLRYYYAN	GKMNRPS	SSRDSSGFQVF	3.24 2.66 2.85	3/9 (3.58)
EGDSLRYYYAN	MKNNRES	SSRMSSGFQVF	n.d. n.d. n.d.	4/9 (3.84)
EGDSVRYYYAN	GHNSRPS	SSRDSSGFQVF	4.04 n.d. n.d.	3/9 (3.84)
EGDSLRYYYGN	AKNNRPS	SSRDSSPFQVF	3.62 3.20 n.d.	4/9 (4.19)
EGDSLRYYYTN	GKNSRPH	SSRDSSGFQVF	2.32 3.04 2.47	0/9
EGDSLRYYYAN	GKNNRFS	SSQDSSGFQVF	2.77 3.22 n.d.	1/9 (5.16)
EDDSCRYYYAN	GKNNVPS	SSRDSSGFQVF	3.98 n.d. n.d.	2/9 (4.13)
EGDSLRYYQAN	GKNNRNS	SSRLSSGFQVF	n.d. 3.55 n.d.	1/9 (4.83)
EGDSLRYYYAC	GKVNRPS	SSRDSSGFQAF	n.d. n.d. n.d.	1/9 (3.42)
EGDSLRYQRAN	GKNNRPS	SGRDSSGFQVF	1.56 1.38 1.07	3/9 (3.98)
EGDLLRYYYAV	GKNNRPS	SSRDSSGFQVF	n.d. n.d. n.d.	2/9 (3.65)
EGDSLRYYVAN	GKNNCMS	SSRDSSGFQVF	n.d. n.d. n.d.	0/9
EGDSLAYYYAN	GKNNRPS	ESRDSSGFQVR	3.78 2.90 2.32	2/9 (3.09)
EGDSLRYYAAN	GKNNRPS	SSRDSSGFQQA	n.d. n.d. n.d.	0/9

The first 7 variants above that were never detected:

| CDR-L1 | CDR-L2 | CDR-L3 | replicates, log10 nM | control signals |
|---|---|---|---|---|
| EGDSLRYYYAN | GKRNRPS | SHRDSSGFGVF | n.d. n.d. n.d. | 0/9 |
| EGDWLRYYYAN | GKNNRPS | SSRDSSAFQSF | n.d. n.d. n.d. | 1/9 (3.01) |
| EGDSLRYYIAN | GKNNRPS | SSRDSKGFQVA | n.d. n.d. n.d. | 0/9 |
| EGDSLRYYYAN | MKNNRES | SSRMSSGFQVF | n.d. n.d. n.d. | 4/9 (3.84) |
| EGDSLRYYYAC | GKVNRPS | SSRDSSGFQAF | n.d. n.d. n.d. | 1/9 (3.42) |
| EGDLLRYYYAV | GKNNRPS | SSRDSSGFQVF | n.d. n.d. n.d. | 2/9 (3.65) |
| EGDSLRYYVAN | GKNNCMS | SSRDSSGFQVF | n.d. n.d. n.d. | 0/9 |

Parent in this assay: reference entry 2.31, copy in this library 2.25.
Nonspecific signal, from three strains lacking the peptide, appeared in 28% of pairings of library AAYL52, centred on 3.91 (5% of these signals below 2.90); values are not corrected for it. The control count says in how many pairings with the empty strains this scFv gave a signal, with their mean in brackets.

From the AlphaSeq antibody data of Engelhart et al. 2022 (doi:10.1038/s41597-022-01779-4), copy in the FLAb collection.